Source: patent US20090203708A1, “NOVEL SUBSTITUTED-1-H-QUINAZOLINE-2,4-DIONE DERIVATIVES, PREPARATION METHOD THEREOF AND PHARMACEUTICAL COMPOSITION CONTAINING THE SAME” (Korea Research Institute of Chemical Technology, priority 2006, published 2009)

By UniProt entry, the sequences of proteins in these tests, tags left out.
UniProt P50406, whole entry: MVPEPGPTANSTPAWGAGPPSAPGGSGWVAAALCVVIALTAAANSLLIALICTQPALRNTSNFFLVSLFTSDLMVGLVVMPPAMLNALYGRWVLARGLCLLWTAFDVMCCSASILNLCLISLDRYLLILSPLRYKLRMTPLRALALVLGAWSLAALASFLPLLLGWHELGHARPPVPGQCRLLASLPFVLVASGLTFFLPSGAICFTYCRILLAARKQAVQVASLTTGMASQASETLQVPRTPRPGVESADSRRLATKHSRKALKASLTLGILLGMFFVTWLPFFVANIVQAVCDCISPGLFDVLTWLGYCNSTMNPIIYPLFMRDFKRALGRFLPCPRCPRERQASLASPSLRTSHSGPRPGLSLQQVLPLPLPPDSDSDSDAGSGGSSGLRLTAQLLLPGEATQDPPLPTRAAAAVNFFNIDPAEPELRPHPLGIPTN

Biological target: T1, HeLa cells transfected with human 5-HT6 receptor (Homo sapiens, UniProt P50406)
T1 construct: expressed in transfected cells; host or cells: HeLa
Experiment: Serotonin-stimulated cAMP accumulation in HeLa cells (EIA)
Type: cell-based
Details: FIG. 1

Compound: CSc1ccc2c(c1)C(N1CCN(C)CC1)Cc1ccccc1S2 (stereo not shown) [methiothepin, reference compound]
- effect on serotonin-stimulated cAMP accumulation (in words): inhibited serotonin-stimulated cAMP accumulation in a dose-dependent manner
